From ChEMBL document CHEMBL4477202, “Synthesis and evaluation of duocarmycin SA analogs incorporating the methyl 1,2,8,8a-tetrahydrocyclopropa[c]imidazolo[4,5-e]indol-4-one-6-carboxylate (CImI) alkylation subunit” (Bioorg Med Chem, 2016)

Assay: Solvolysis reactivity of the compound in phosphate buffer assessed as solvolytic rate constant at pH 3 upto 187 hrs by UV spectrophotometry

| SMILES | K |
| --- | --- |
| COC(=O)c1nc2c([nH]1)C(=O)C=C1N(C(=O)OC(C)(C)C)CC3CC123 (configuration not stated) | 5.52 ×10⁻⁶ /s |
| COC(=O)c1cc2c([nH]1)C(=O)C=C1N(C(=O)OC(C)(C)C)CC3CC123 (configuration not stated) | 1.08 ×10⁻⁶ /s |
